Data from ChEMBL document CHEMBL3045166, “Structure-function studies of omega-atracotoxin, a potent antagonist of insect voltage-gated calcium channels” (1999).

System: Acheta domesticus
Assay: Insecticidal activity against Acheta domesticus assessed as death compound treated lateroventral thoracic injections between legs 2 and 3 using a 29-gauge needle measured after 48 hr

Question: CC[C@H](C)[C@H](NC(=O)[C@H](CS)NC(=O)[C@@H](N)[C@@H](C)O)C(=O)N1CCC[C@H]1C(=O)N[C@@H](CO)C(=O)NCC(=O)N[C@@H](CCC(N)=O)C(=O)N1CCC[C@H]1C(=O)N[C@@H](CS)C(=O)N1CCC[C@H]1C(=O)N[C@@H](Cc1ccc(O)cc1)C(=O)N[C@@H](CC(N)=O)C(=O)N[C@@H](CCC(=O)O)C(=O)N[C@@H](CC(N)=O)C(=O)N[C@@H](CS)C(=O)N[C@@H](CS)C(=O)N[C@@H](CO)C(=O)N[C@@H](CCC(N)=O)C(=O)N[C@@H](CO)C(=O)N[C@@H](CS)C(=O)N[C@H](C(=O)N[C@@H](Cc1ccccc1)C(=O)N[C@@H](CCCCN)C(=O)N[C@@H](CCC(=O)O)C(=O)N[C@@H](CC(N)=O)C(=O)N[C@@H](CCC(=O)O)C(=O)N[C@@H](CC(N)=O)C(=O)NCC(=O)N[C@@H](CC(N)=O)C(=O)N[C@H](C(=O)N[C@H](C(=O)N[C@@H](CCCCN)C(=O)N[C@@H](CCCNC(=N)N)C(=O)N[C@@H](CS)C(=O)N[C@@H](CC(=O)O)C(=O)O)C(C)C)[C@@H](C)O)[C@@H](C)O was tested. Which LD50 did it give?
Answer: Its LD50 is 1550 pmol/g.

Question: Which LD50 does the source give for CC[C@H](C)[C@H](NC(=O)[C@H](CS)NC(=O)[C@@H](NC(=O)[C@H](CO)NC(=O)[C@@H](N)CO)[C@@H](C)O)C(=O)N1CCC[C@H]1C(=O)N[C@@H](CO)C(=O)NCC(=O)N[C@@H](CCC(N)=O)C(=O)N1CCC[C@H]1C(=O)N[C@@H](CS)C(=O)N1CCC[C@H]1C(=O)N[C@@H](Cc1ccc(O)cc1)C(=O)N[C@@H](CC(N)=O)C(=O)N[C@@H](CCC(=O)O)C(=O)N[C@@H](CC(N)=O)C(=O)N[C@@H](CS)C(=O)N[C@@H](CS)C(=O)N[C@@H](CO)C(=O)N[C@@H](CCC(N)=O)C(=O)N[C@@H](CO)C(=O)N[C@@H](CS)C(=O)N[C@H](C(=O)N[C@@H](Cc1ccc(O)cc1)C(=O)N[C@@H](CCCCN)C(=O)N[C@@H](CCC(=O)O)C(=O)N[C@@H](CC(N)=O)C(=O)N[C@@H](CCC(=O)O)C(=O)N[C@@H](CC(N)=O)C(=O)NCC(=O)N[C@@H](CC(N)=O)C(=O)N[C@H](C(=O)N[C@H](C(=O)N[C@@H](CCCCN)C(=O)N[C@@H](CCCNC(=N)N)C(=O)N[C@@H](CS)C(=O)N[C@@H](CC(=O)O)C(=O)O)C(C)C)[C@@H](C)O)[C@@H](C)O here?
Answer: Its LD50 is 224 pmol/g.

Question: For CC[C@H](C)[C@H](NC[C@@H](N)CS)C(=O)N1CCC[C@H]1C(=O)N[C@@H](CO)C(=O)NCC(=O)N[C@@H](CCC(N)=O)C(=O)N1CCC[C@H]1C(=O)N[C@@H](CS)C(=O)N1CCC[C@H]1C(=O)N[C@@H](Cc1ccc(O)cc1)C(=O)N[C@@H](CC(N)=O)C(=O)N[C@@H](CCC(=O)O)C(=O)N[C@@H](CC(N)=O)C(=O)N[C@@H](CS)C(=O)N[C@@H](CS)C(=O)N[C@@H](CO)C(=O)N[C@@H](CCC(N)=O)C(=O)N[C@@H](CO)C(=O)N[C@@H](CS)C(=O)N[C@H](C(=O)N[C@@H](Cc1ccccc1)C(=O)N[C@@H](CCCCN)C(=O)N[C@@H](CCC(=O)O)C(=O)N[C@@H](CC(N)=O)C(=O)N[C@@H](CCC(=O)O)C(=O)N[C@@H](CC(N)=O)C(=O)NCC(=O)N[C@@H](CC(N)=O)C(=O)N[C@H](C(=O)N[C@H](C(=O)N[C@@H](CCCCN)C(=O)N[C@@H](CCCNC(=N)N)C(=O)N[C@@H](CS)C(=O)N[C@@H](CC(=O)O)C(=O)O)C(C)C)[C@@H](C)O)[C@@H](C)O, which LD50 is on record?
Answer: The LD50 was 1470 pmol/g.
